The target in one assay is p38 (Homo sapiens, UniProt Q16539). Kind of assay: DSF against p38 (selectivity panel of MAPK cascade members). To be noted: difference between the TAOK2 ΔTm and that of p38, DSF. The procedure:
(§1) Differential scanning fluorimetry binding assays of selected compounds against TAOK2 were conducted to measure strength of compound binding. A solution of 5 μM TAOK2, 50 mM MgCl2, 50 mM HEPES pH 7.5, and 2.5x SyproOrange(Life Technologies) was made. Compound was added to a final concentration of 1 μM. 25 μl of the reaction solution was added to the wells of a Biorad Multiplate 96 wellclear PCR plate. The plate was covered with a Biorad Microseal ‘B’ seal. Plates were read in a Biorad CFX96 Real-Time PCR system. The temperature was increased from 4° C. to 80° C., with fluorescence measurements being taken every 0.5° C. in the 6-FAM Fluorescein channel. The fluorescence response to heat curve was fit to a binding isotherm in order to determine the inflection point, which was taken as the melt temperature (Tm).
(§2) The difference between the TAOK2 ΔTm and that of p38 and ASK1 was determined. […] The majority of the other compounds were also preferentially inhibitory toward TAOK2. Of the 13 compounds, SW034538, SW172006 and SW083688 were cross-verified for selectivity by performing a specificity screen against 45 kinases commercially at Eurofins Cerep, Inc. (FIG. 3).

Amino acid sequences for entries named in this document (tags omitted).
UniProt Q16539, whole entry: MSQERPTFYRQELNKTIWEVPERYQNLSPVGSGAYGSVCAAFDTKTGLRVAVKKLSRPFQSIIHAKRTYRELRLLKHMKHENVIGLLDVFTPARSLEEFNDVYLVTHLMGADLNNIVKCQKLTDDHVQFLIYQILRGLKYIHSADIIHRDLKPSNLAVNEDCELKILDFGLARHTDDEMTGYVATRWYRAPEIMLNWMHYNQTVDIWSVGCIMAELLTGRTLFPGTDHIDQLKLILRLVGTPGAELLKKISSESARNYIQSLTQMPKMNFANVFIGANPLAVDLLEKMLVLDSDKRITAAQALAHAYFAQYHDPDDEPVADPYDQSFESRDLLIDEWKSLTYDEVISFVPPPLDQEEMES
UniProt Q99683, whole entry: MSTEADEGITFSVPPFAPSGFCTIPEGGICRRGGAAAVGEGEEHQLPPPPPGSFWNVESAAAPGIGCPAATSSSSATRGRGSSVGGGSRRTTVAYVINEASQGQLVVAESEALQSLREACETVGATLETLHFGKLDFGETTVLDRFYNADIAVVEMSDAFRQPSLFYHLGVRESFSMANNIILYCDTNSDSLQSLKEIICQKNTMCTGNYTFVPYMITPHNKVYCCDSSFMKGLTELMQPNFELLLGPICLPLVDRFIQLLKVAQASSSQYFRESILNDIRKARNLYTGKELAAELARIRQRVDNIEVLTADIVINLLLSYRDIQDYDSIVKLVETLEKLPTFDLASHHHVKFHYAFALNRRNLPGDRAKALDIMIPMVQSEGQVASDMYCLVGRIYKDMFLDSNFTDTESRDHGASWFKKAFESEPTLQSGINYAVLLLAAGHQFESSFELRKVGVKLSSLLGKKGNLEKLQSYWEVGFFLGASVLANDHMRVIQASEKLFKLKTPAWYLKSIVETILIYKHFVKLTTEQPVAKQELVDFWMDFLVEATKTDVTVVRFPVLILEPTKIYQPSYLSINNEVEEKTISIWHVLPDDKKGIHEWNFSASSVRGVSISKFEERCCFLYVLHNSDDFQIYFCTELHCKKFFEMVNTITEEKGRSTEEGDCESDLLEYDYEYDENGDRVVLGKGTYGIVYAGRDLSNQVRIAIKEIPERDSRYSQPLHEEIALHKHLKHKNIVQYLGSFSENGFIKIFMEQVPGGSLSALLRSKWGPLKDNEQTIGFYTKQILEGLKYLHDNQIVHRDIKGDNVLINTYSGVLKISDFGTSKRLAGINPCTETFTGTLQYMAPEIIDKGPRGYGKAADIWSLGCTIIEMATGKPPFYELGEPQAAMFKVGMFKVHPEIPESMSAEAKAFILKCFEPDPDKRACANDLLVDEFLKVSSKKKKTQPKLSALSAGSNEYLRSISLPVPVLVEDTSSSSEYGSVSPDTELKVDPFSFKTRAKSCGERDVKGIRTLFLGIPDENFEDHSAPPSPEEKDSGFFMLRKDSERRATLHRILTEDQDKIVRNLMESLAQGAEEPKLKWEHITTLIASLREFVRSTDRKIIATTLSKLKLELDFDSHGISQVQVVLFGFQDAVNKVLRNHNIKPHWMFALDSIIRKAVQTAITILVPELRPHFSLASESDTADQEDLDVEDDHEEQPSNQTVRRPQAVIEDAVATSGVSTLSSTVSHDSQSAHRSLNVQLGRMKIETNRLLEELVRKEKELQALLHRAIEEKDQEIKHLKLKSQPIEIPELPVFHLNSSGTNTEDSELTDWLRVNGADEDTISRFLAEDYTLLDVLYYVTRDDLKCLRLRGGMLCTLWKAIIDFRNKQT

In the next assay the test system is U2OS GFP-LC3 cells. Kind of assay: p62 accumulation by western blot (autophagic flux). To be noted: 50 μM, 24 hours. The procedure:
FIG. 4A) U2OS cells stably expressing the GFP-LC3 fusion transgene were treated with the indicated compound at 50 μM concentration for 24 hours before GFP fluorescence was measured by flow cytometry. The median fluorescent value from 20,000 cells per condition was normalized to that of vehicle alone (DMSO) within a given experiment. The mean+SD of >2 independent experiments is shown. ****, p<0.0001; ***, p<0.001; **, p<0.01; ns, p>0.05 versus vehicle alone (DMSO) by unpaired t test. FIG. 4B) TAOK2 inhibitors induce accumulation of p62. U2OS GFP-LC3 cells were treated with the indicated compounds at 50 μM concentration, or DMSO alone, for 24 hours. Lysates were collected and analyzed by western blot using the indicated antibodies. XPB was used as a loading control.
U2OS GFP-LC3 cells were seeded in 6-well plates at 150,000 cells per well in Dulbecco's Modified Eagle Medium supplemented with 10% fetal bovine serum. Twenty-four hours after seeding, the indicated compounds were added to a final concentration of 50 µM, or an equivalent volume of vehicle alone (DMSO) was added. Twenty-four hours after compound addition, cells were rinsed twice with PBS and then lysed in 2× sample buffer. […] Membranes were then washed, incubated with secondary antibody in blocking solution, washed again, and analyzed by enhanced chemiluminescence followed by exposure to film. […]

For another assay, the target named is ASK1 (Homo sapiens, UniProt Q99683). The assay can be described thus: DSF against ASK1 (selectivity panel of MAPK cascade members). To be noted: difference between the TAOK2 ΔTm and that of ASK1, DSF. The protocol:
as §1, §2

The structures appear in SMILES notation.

With `Cc1ccc(C(=O)CSc2nnc(-c3ccncc3)[nH]2)c(C)c1`, the “ΔΔTm (p38)” value on p38 stood at 0.0 °C. As to `O=C(Nc1cccc(-c2nc3ccccc3c(=O)o2)c1)c1ccccc1Br`, in the assay on U2OS GFP-LC3 cells, the “abundance of p62” value is reported as “increased the abundance of p62”. For `c1cc2[nH]c3c(c2c2nonc12)CCCC3`, the “ΔΔTm (ASK1)” value at ASK1 was −0.0 °C.

The values are drawn from patent publication US20170340636A1, “COMPOSITIONS AND METHODS FOR INHIBITION OF AUTOPHAGY” (Board of Regents, The University of Texas System, priority 2016, published 2017).
